1 compound from ChEMBL document CHEMBL1153819, “Use of acetylcholine binding protein in the search for novel alpha7 nicotinic receptor ligands. In silico docking, pharmacological screening, and X-ray analysis” (J Med Chem, 2009) can be followed below.

Amino acid sequences for entries named in this document (tags omitted).
UniProt P58154, whole entry: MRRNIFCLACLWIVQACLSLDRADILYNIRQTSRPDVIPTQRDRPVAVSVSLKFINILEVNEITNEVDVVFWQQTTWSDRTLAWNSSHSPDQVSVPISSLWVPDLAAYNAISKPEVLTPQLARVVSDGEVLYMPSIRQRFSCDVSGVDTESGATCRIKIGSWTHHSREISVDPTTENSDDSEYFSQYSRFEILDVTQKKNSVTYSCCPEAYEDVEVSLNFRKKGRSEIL

The target in this experiment is Acetylcholine-binding protein (Lymnaea stagnalis, UniProt P58154). As to the kind of experiment: Displacement of [125I]alpha-bungarotoxin from Lymnaea stagnalis His-tagged AchBP.

The structures appear in SMILES notation. pKi: −log10 of the molar value.

A word on the pKi: it is the Ki on a negative log10 scale, so that one unit is a factor of ten. A low value points to a high Ki. The compound `CN1CCC[C@H]1c1cccnc1` [NICOTINE] showed a pKi of 7.20.
